{"sequences": {"note": "Amino acid sequences for entries named in this document (tags omitted).", "UniProt Q96T88, whole entry": "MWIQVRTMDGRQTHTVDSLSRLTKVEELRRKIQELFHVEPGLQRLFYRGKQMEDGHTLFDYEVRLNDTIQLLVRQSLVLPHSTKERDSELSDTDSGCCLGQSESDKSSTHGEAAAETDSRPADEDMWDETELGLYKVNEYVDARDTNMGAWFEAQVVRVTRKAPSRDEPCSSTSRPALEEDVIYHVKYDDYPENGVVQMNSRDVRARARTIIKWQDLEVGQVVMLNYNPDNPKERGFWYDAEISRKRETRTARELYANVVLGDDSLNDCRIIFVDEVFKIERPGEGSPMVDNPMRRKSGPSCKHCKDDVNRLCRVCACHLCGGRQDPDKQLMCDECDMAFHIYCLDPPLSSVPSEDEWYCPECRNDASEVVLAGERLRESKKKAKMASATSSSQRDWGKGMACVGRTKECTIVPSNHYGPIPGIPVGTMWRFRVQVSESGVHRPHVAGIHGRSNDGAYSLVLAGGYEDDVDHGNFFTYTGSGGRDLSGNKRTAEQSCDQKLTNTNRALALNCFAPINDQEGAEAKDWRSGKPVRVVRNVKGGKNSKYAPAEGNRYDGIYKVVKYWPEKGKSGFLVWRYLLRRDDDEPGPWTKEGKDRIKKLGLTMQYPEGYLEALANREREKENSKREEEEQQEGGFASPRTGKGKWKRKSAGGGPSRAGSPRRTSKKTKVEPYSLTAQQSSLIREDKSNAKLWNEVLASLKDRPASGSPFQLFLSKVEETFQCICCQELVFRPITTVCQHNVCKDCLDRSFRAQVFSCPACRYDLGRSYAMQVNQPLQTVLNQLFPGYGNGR"}, "source": "PubChem BioAssay AID687016", "about": "(The Scripps Research Institute Molecular Screening Center, 2013)", "note": "Only a part is listed here, and it is no random draw. Active and inactive are the calls of the source. Rule as the data show it: active = inhibition above about 21%; inactive = the rest.", "data": [{"biological_target": "E3 ubiquitin-protein ligase UHRF1 (Homo sapiens) (UniProt Q96T88)", "experiment": "UHRF1 methylated DNA binding inhibitors, primary screen, counter-screen for MBD2 inhibitor project, biochemical, TR-FRET, human UHRF1, single concentration (AID 687016);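 also: UHRF1 SRA domain binding a hemimethylated CpG hairpin DNA probe; 0% = median of test compound wells and 100% = reference inhibitor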", "details": "UHRF1 binding to methylated oligo, at 4.4 µM, active compounds read high", "values": [{"smiles": "O=[N+]([O-])c1cccc2n[nH]nc12", "inhibition": "inactive: 2.83%"}]}]}
